{"source": "paper PMC3947011", "about": "(ACS chemical biology, 2013)", "test_system": "human red blood cells (hRBCs)", "experiment": "Hemolysis assay", "assay_type": "cell-based", "conditions": "concentration causing 50% hemolysis", "data": [{"substance": "Pexiganan", "values": [{"measurement": "Hemolysis HC50", "setting": "hRBCs, 37 °C, 1 h", "result": 120, "unit": "µg/mL"}, {"measurement": "Hemolysis HC50", "setting": "value in parentheses", "result": 45, "unit": "µM"}]}]}
